The values below come from patent US10202339B2, “Therapeutic compounds and compositions” (AGIOS PHARMACEUTICALS, INC., priority 2012, dated 2019).

Sequences of proteins named here, by UniProt entry; tags and fusion partners are left off. Residues count along the entry.
UniProt P48735, 40-452 R140Q: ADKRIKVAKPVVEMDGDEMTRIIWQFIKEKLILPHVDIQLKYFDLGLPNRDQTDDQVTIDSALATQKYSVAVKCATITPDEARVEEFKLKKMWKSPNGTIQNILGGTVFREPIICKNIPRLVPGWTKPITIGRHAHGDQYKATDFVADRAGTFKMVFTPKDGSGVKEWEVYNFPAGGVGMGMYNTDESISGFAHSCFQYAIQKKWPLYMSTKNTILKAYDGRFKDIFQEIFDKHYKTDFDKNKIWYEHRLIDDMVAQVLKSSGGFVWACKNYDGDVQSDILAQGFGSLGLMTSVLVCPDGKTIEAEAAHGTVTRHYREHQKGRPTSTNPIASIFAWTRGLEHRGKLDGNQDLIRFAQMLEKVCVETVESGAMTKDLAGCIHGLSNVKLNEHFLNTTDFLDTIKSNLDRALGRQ

This assay deals with IDH2 R140Q (Homo sapiens (Human), UniProt P48735, R140Q). As to the kind of experiment: IDH2 R140Q enzymatic cofactor depletion assay (diaphorase/resazurin). It counts as biochemical. The note with it: IDH2 R140Q enzyme, one hour preincubation with compound, one hour reaction; read-out: Enz R140Q. The method, then: Compounds were assayed for IDH2 R140Q inhibitory activity through a cofactor depletion assay. […] The reaction was terminated by the addition of a second enzyme, diaphorase, and a corresponding substrate, resazurin. Diaphorase reduces resazurin to the highly fluorescent resorufin with the concomitant oxidation of NADPH to NADP, both halting the IDH2 reaction by depleting the available cofactor pool and facilitating quantitation of the amount of cofactor remaining after a specific time period through quantitative production of an easily detected fluorophore.
Specifically, into each of 12 wells of a 384-well plate, 1 μl of compound dilution series was placed, followed by the addition of 40 μl of buffer (50 mM potassium phosphate, pH 7.5; 150 mM NaCl; 10 mM MgCl2, 10% glycerol, 0.05% bovine serum albumin, 2 mM beta-mercaptoethanol) containing 1.25 μg/ml IDH2 R140Q. […] After a further one hour of incubation at room temperature, the reaction was halted and the remaining NADPH measured through conversion of resazurin to resorufin by the addition of 25 μl Stop Mix (36 μg/ml diaphorase enzyme and 60 μM resazurin; in buffer). After one minute of incubation the plate was read on a plate reader at Ex544/Em590. […]

Turning to `O=C(Nc1cccc(C(F)(F)F)c1)Nc1cc(S(=O)(=O)NC2CC2)ccc1-c1ccsc1` [Compound 124, N-cyclopropyl-4-(thiophen-3-yl)-3-(3-(3-(trifluoromethyl)phenyl)ureido)benzenesulfonamide], the IC50 was in the range of 100 to 1000 nM.
